Measurements from publication PMC4778445, “Measurement of free glucocorticoids: quantifying corticosteroid-binding globulin binding affinity and its variation within and among mammalian species” (Conservation Physiology, 2015).

Legend:
Assay in all cases: radioligand saturation binding, dextran-coated charcoal separation
[1] = target: T1, corticosteroid-binding globulin (CBG), Richardson's ground squirrel; set-up: species or system Urocitellus richardsonii; conditions: labelled compound ([1,2,6,7-3H]cortisol); 37 °C, ≥4 h, PBS with gelatin; separation at 0 °C; plasma 1/50; mean of 16 individual males; error SEM
T1 construct: gene SERPINA6; native protein in charcoal-stripped individual plasma, not purified

[2] = target: T2, corticosteroid-binding globulin (CBG), red squirrel; set-up: species or system Tamiasciurus hudsonicus; conditions: labelled compound ([1,2,6,7-3H]cortisol); 37 °C, ≥4 h, PBS with gelatin; separation at 0 °C; pooled plasma 1/80-1/10; mean of six runs; error SEM
T2 construct: gene SERPINA6; native protein in charcoal-stripped plasma, not purified

[3] = target: T3, corticosteroid-binding globulin (CBG), lynx; set-up: species or system Lynx canadensis; conditions: labelled compound ([1,2,6,7-3H]cortisol); 37 °C, ≥4 h, PBS with gelatin; separation at 0 °C; serum 1/50; error SEM
T3 construct: gene SERPINA6; native protein in charcoal-stripped serum (Toronto Zoo), not purified

[4] = target: T4, corticosteroid-binding globulin (CBG), Columbian ground squirrel; set-up: species or system Urocitellus columbianus; conditions: labelled compound ([1,2,6,7-3H]cortisol); 37 °C, ≥4 h, PBS with gelatin; separation at 0 °C; plasma 1/50; mean of five runs; error SEM
T4 construct: gene SERPINA6; native protein in charcoal-stripped plasma, not purified

[5] = target: T5, corticosteroid-binding globulin (CBG), snowshoe hare; set-up: species or system Lepus americanus; conditions: labelled compound ([1,2,6,7-3H]cortisol); 37 °C, ≥4 h, PBS with gelatin; separation at 0 °C; plasma 1/25; non-specific binding subtracted; error SEM
T5 construct: gene SERPINA6; native protein in charcoal-stripped plasma, not purified

[6] = target: T6, corticosteroid-binding globulin (CBG), spotted hyena; set-up: species or system Crocuta crocuta; conditions: labelled compound ([1,2,6,7-3H]cortisol); 37 °C, ≥4 h, PBS with gelatin; separation at 0 °C; serum 1/50; mean of two runs; error SEM
T6 construct: gene SERPINA6; native protein in charcoal-stripped serum (Toronto Zoo), not purified

C[C@]12CCC(=O)C=C1CC[C@@H]1[C@@H]2[C@@H](O)C[C@@]2(C)[C@H]1CC[C@]2(O)C(=O)CO [F, cortisol]
Kd [1]: 4.3 ± 0.36 nM | Kd [2]: 61.1 ± 2.9 nM | Kd [3]: 6.8 ± 0.63 nM | Kd [4]: 5.1 ± 1 nM | Kd [5]: 0.6 ± 0.18 nM | Kd [6]: 4 ± 0.4 nM
